Measurements taken from PubChem BioAssay AID493085 (Broad Institute, 2011).
The other results are listed elsewhere or left out. Entries with a potency or affinity are not part of this list. Results filed as inconclusive are left out. Activity calls are given as the source filed them.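 The calls were made as follows: active = falling-signal curve with half-maximal concentration at or below ten times the top tested dose; inconclusive = flat fit at 30 to 70% inhibition, or poor fit; inactive = signal rise, flat within 30%, or potency beyond limit.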

Assay: Tet-On RFP internal-standard readout, HSF1 screen, dose response, cell-based, NIH3T3 R4, HSE-GFP and Tet-On RFP, cherry-pick, set 3 (AID 493085);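 also: cells heat shocked 2 h at 42 °C with doxycycline to induce reporters; 0% = neutral control wells and -100% = didemnin B control at 400 nM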
Settings: NIH3T3 R4 HSE-GFP/Tet-RFP reporter, fluorescence, 48 h; at 19.5 µM (top of the series)

| Compound | activity change, negative = inhibition |
| --- | --- |
| O=C(OC1CN2CCC1CC2)c1cccc(Cl)c1 (stereo unspecified) | inactive: 1.77% |
